Test results as given in article PMC4009755, “High-Throughput Screen of Natural Product Libraries for Hsp90 Inhibitors” (Biology, 2014).

Target: Hsp90 chaperone machinery present in rabbit reticulocyte lysate
Test: Hsp90-dependent refolding of thermally denatured luciferase in rabbit reticulocyte lysate (high-throughput screen and titration)
Format: biochemical
Settings: estimate; titration from 25 µg/mL in three-fold dilutions, repeated twice; rabbit reticulocyte lysate
Description: Rabbit reticulocyte lysate, prepared by lysing one volume of packed reticulocytes in two volumes of deionized water, followed by centrifugation for twenty minutes at 15,000 × g, was purchased from Green Hectares (Oregon, WI, USA).
Recombinant luciferase from Promega was diluted to 0.5 mg/mL in buffer consisting of 25 mM Tricine–HCl (pH 7.8), 8 mM MgSO4, 0.1 mM EDTA, and 10 mg/mL acetylated BSA. Next, the solution was adjusted to include 10% glycerol and 1% Triton X-100. Finally, the luciferase solution was heated to ~41°. Once the activity of the luciferase reached ~1% of its initial value, the mixture was placed on ice, or flash frozen in liquid nitrogen and placed at −80° for storage.
To prepare the denatured luciferase for use in re-folding assays, 125 µL of the 0.5 mg/mL mixture was added into a 10 mL mixture containing 80 mM Tris HCl, pH 7.7, 8 mM Mg(OAc)2, 300 mM KCl, 12 mM ATP, and 20 mM creatine phosphate, and 0.8 mg/mL creatine phosphokinase.
The assay buffer, which contains the luciferase substrate luciferin, consisted of 75 mM Tricine-HCl, pH 7.8, 24 mM MgSO4, 300 µM EDTA, 2 mM DTT, 313 µM D-luciferin, 640 µM coenzyme A, 660 µM ATP, 150 mM KCl, 10% (v/v) Triton X-100, 20% (v/v) glycerol, and 3.5% DMSO.
The libraries were screened for compounds that inhibited the refolding of thermally denatured luciferase using a high-throughput assay carried out with a slight modification of the method previously described. Briefly, compounds were reconstituted in 100% DMSO. Stocks of compounds purchased from Microsource, TimTec, Biofocus and BioMol were reconstituted to a concentration of 1 mg/mL. The stocks were diluted 40-fold into nano-pure water with the compounds being used at a final concentration of 12.5 µg/mL for the assay. Analyticon compounds (0.2 µmol) were reconstituted to a concentration of 4 mM, and were used at a final concentration of 40 µM in the assay. Assays were performed in 96-well microplates. To each well was added 30 µL of the water/DMSO compound solution, 15 µL of the reticulocyte lysate preparation, and 15 µL of the luciferase reagent. The plates were agitated and then allowed to incubate at 25 °C for one to three hours. After the incubation, 60 µL of assay buffer containing luciferin was added to each well. The plates were then read in a Molecular Devices LMaxII^384 microplate reader, and luminescence was measured in relative light units, with an integration time of 10 s. Compounds that inhibited luciferase refolding by approximately fifty percent or greater were then titrated into a refolding reaction containing native luciferase, to eliminate false positive hits that were direct inhibitors of luciferase as previously described. Compounds were classified as a potential Hsp90 inhibitor if they inhibited luciferase refolding by 60% or greater and there was no inhibition of the activity of native luciferase at the compound’s IC50 (concentration of the compound that inhibits luciferase refolding by 50%).
The titrations were repeated twice. For a more accurate determination of the IC50s for the compounds studied in Section 3.2.1 of this manuscript, a two-fold […] series of the compounds were used in triplicate, with the experiment being repeated three times.

| Molecule | IC50 |
| --- | --- |
| COc1cc2c(cc1OC)-c1c(OC)c(OC)c(C=O)c3c1[C@H](C2)N(C)CC3 [Compound 72, 3-Formyl-glaucine] | 8 to 20 µM |
| COc1ccc2oc(-c3cccc(OC)c3OC)cc(=O)c2c1 [Compound 29, 2-(2,3-Dimethoxyphenyl)-6-methoxy-4H-chromen-4-one] | > 90 µM |
| COc1cc2c(cc1O)C[C@H]1c3c(cc(OC)c(O)c3-2)CCN1C [Compound 63, Isoboldine] | 30 to 80 µM |
| O=C(c1cc(Br)c(O)c(Br)c1)c1c(-c2cc(Br)c(O)c(Br)c2)c(-c2cc(Br)c(O)c(Br)c2)c(C(=O)c2cc(Br)c(O)c(Br)c2)n1CCc1ccc(O)cc1 [Compound 21, Polycitone A] | 10 to 20 µM |
| Cc1cc(O)c2c3c(ccc2c1)C(=O)c1c(O)cccc1C3=O [Compound 87, Tetrangulol G2] | ~20 µM |
| CC1=CC(=O)c2c(O)cccc2C1=O [Compound 84, Plumbagin] | < 0.05 µM |
| C=CC1CN2CCC1CC2C(O)c1ccnc2ccccc12 (single isomer, unassigned; (+)) [Compound 54, (+)-Cinchonine] | ~30 µM |
| C/C=C/C=C/C=C/C(=O)O[C@@H]1C=C2COC(=O)[C@]2(O)[C@@]2(C)CCCC(C)(C)[C@H]12 [Compound 4] | ~60 µM |
| COc1cc2c(cc1O)-c1c(O)c(OC)cc3c1[C@H](C2)N(C)CC3 [Compound 64, Bracteoline] | ~80 µM |
| C/C=C(\C)C(=O)O[C@H]1C(=O)C(CO)=C[C@H](OC(C)=O)[C@@H]1C(C)C [Compound 107] | ~15 µM |
| O=C1CC(c2ccccc2)Oc2c(Cc3cccc(O)c3O)c(O)c(Cc3cccc(O)c3O)c(O)c21 (centres unmarked) [Compound 25] | ~70 µM |
| CCCCCc1cc2cc(O)cc(Oc3c(O)cc(O)cc3CCCCC)c2c(=O)o1 [Compound 33] | ~65 µM |
| C/C=C/CCC(=O)c1cc(C)c(O)c(C)c1O [Compound 13, 2'3'-dihydrosorbicillin] | > 100 µM |
| CC(=O)OC1CC2C(COC(=O)CC(C)C)=COC(OC(=O)C(C)C)C2C1(O)CCl (centres unmarked) [Compound 101] | ~50 µM |
| C=C[C@@H](C1=CC(=O)C(OC)=C(OC)C1=O)c1ccccc1 [Compound 94, 3'4'-Dimethoxydalbergione] | ~5 µM |
| Cyclopeptide L-156373 [Compound 77] | ~10 µM |
| COc1ccc2c(c1OC)CN(C)c1c-2ccc2cc3c(cc12)OCO3 [Compound 73] | ~40 µM |
| COc1cc2c(cc1OC)-c1c(O)c(OC)cc3c1[C@H](C2)N(C)CC3 [Compound 62, Thaliporphine] | ~9 µM |
| CC(=O)O[C@@H]1C[C@@H]2[C@@]3(C)CCCC(C)(C)[C@@H]3CC[C@@]2(C)[C@]2(O)C=C(C=O)[C@H](C=O)[C@@]12C [Compound 11, Scalaradial, 12-epi-] | 40 to 60 µM |

Now from value to molecule:

| IC50 | Molecule |
| --- | --- |
| ~20 µM | CN(C)[C@@H]1C(O)=C(C(=O)NCN2CCCC2)C(=O)[C@@]2(O)C(O)=C3C(=O)c4c(O)cccc4[C@@](C)(O)[C@H]3C[C@@H]12 [Compound 100, Rolitetracycline] |
| ~40 µM | C=C1C2CCC3C(CCC4[C@@]3(C)CCC[C@@]4(C)C(=O)O)(C2)[C@@H]1OC(=O)/C(C)=C\C (stereo partly drawn) [Compound 105, (4R,7R,11bS)-4,11b-dimethyl-7-(((Z)-2-methylbut-2-enoyl)oxy)-8-methylenetetradecahydro-6a,9-methanocyclohepta[a]naphthalene-4-carboxylic acid] |
| ~70 µM | COc1cc(/C=C/C(=O)CC(=O)/C=C/c2ccc(O)c(OC)c2)ccc1O [Compound 40, Curcumin] |
| 30 to 50 µM | CC1=C(/C=C/C(C)=C\C=C\C(C)=C\C(=O)O)C(C)(C)CCC1 [Compound 113, 9-Cis-retinoic acid] |
| ~10 µM | CO[C@H]1/C=C/C(C)(C)/C=C/C(=O)O[C@H](C)[C@@H](C)CC/C=C/1C [Compound 8] |
| ~60 µM | C=C1CC[C@H](O)C/C1=C/C=C1\CCC[C@]2(C)[C@@H]([C@H](C)/C=C/[C@H](C)C(C)C)CC[C@@H]12 [Compound 97, Vitamin D2] |
| ~10 µM | C=C1C(=O)O[C@@H]2/C=C(/C)C(=O)/C=C/[C@](C)(O)C[C@@H](OC(=O)C(C)C)[C@@H]12 [Compound 5, Tagitinin C] |
| ~10 µM | Antibiotic A83586C [Compound 75] |
| ~80 µM | COc1cc2c(cc1OC)-c1c(OC)c(OC)cc3ccnc(c13)C2=O [Compound 65, 7-oxoglaucine] |
| ~50 µM | Cc1c(C)c2c(c(C)c1OC(=O)CCC(=O)O)CC[C@@](C)(CCC[C@H](C)CCC[C@H](C)CCCC(C)C)O2 [Compound 19, (+)-α-Tocopherol acid succinate] |
| ~50 µM | N=c1ccn2c(n1)O[C@H]1[C@H](O)[C@H](CO)O[C@H]12 [Compound 55, (2S,3R,3aS,9aR)-2-(hydroxymethyl)-6-imino-2,3,3a,9a-tetrahydro-6H-furo[2',3':4,5]oxazolo[3,2-a] pyrimidin-3-ol] |
| ~60 µM | COc1c(O)cc2oc3cc(O)c(CC=C(C)C)c(O)c3c(=O)c2c1CC=C(C)C [Compound 32, 1,7-bis(3-methylbut-2-enyl)-3,6,8-trihydroxy-2-methoxy-xanthen-9-one] |
| > 100 µM | O=c1cc(-c2ccc(O)c(O)c2)oc2cc(O)cc(O)c12 [Compound 31, Luteolin] |
| > 100 µM | C=C1C(=O)O[C@H]2[C@H]1CC/C(C)=C/CC[C@@]1(C)O[C@@H]21 [Compound 6, Parthenolide] |
| ~40 µM | C=C1C(=O)OC2C1C(OC(=O)C(C)(O)CC)C(OC(C)=O)C(C(=O)OC)=CCCC1(C)OC21 (centres unmarked) [Compound 2] |
| 30 to 80 µM | COc1ccc(-c2oc3ccc(C)cc3c(=O)c2O)cc1OC [Compound 30, 3',4'-Dimethoxy-3-hydroxy-6-methylflavone] |
